This is an account of results in patent US8039589 (MAYO FOUNDATION FOR MEDICAL EDUCATION AND RESEARCH, dated 2011).

The experiment concerns the target T1, PD-1Ig (extracellular domain of mouse PD-1 linked to the Fc portion of mouse IgG2a) (mouse, UniProt Q02242 25-169).
T1 construct: extracellular domain; Coated on ELISA plates and immobilized on the CM5 chip; also called mPD-1; not shown: Fc portion of mouse IgG2a
T1 sequence (looked up): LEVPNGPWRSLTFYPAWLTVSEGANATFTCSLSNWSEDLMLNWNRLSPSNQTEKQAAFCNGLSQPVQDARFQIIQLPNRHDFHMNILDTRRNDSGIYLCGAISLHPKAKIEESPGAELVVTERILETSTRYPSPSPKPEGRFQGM
Briefly: capture ELISA, PD-1Ig coated.

B1: mouse B7-DCIg mutant D111S (Fc fusion)
chain: LFTVTAPKEVYTVDVGSSVSLECDFDRRECTELEGIRASLQKVENDTSLQSERATLLEEQLPLGKALFHIPSVQVRDSGQYRCLVICGAAWSYKYLTVKVKASYMRIDTRILEVPGTGEVQLTCQARGYPLAEVSWQNVSVPANTSHIRTPEGLYQVTSVLRLKPQPSRNFSCMFWNAHMKELTSAIIDPLSRMEPKVPRTW
notes: not shown: CH2-CH3 portion of human IgG1
As for B1, the “ELISA (%) specific binding activity relative to wild type B7-DCIg” value turned out to be 0.3%.
